The target in this test is human α-thrombin (Homo sapiens, UniProt P00734). The test is described as follows: In vitro assay for determining proteinase inhibition: thrombin (sar-PR-pna or Z-GPR-afc substrate). It is filed as biochemical.
Setting [1] is: Table 3, scaffold drawing 108 with R1, R2, R3.
Setting [2] is: Table 2, scaffold drawing 104 with R1, R2, R3.

Ki data for 15 compounds are collected here from US6610692B1, “Thrombin inhibitors” (Merck & Co., Inc., priority 1998, dated 2003).

A word on the Ki: it is a dissociation constant, usually derived from enzyme kinetics or from competition with a known ligand. Compound `Cc1cc(C(=O)N(CC(C)C)CC(C)C)cc(=O)n1CC(=O)NCc1cc2cc[nH]c2cn1` returned a Ki under setting [1] below 20 nM.

For the compound `Cc1cc(-c2ccccc2C(C)C)cc(=O)n1CC(=O)NCc1cc2cn[nH]c2cn1`, the Ki under setting [2] was above 20 nM.

`Cc1cc(-c2ccccc2C(C)C)cc(=O)n1CC(=O)NCc1cnc2[nH]cc(F)c2c1` returned a Ki under setting [2] above 20 nM.

On to `Cc1cc(-c2ccccc2C(C)C)cc(=O)n1CC(=O)NCc1cnc2[nH]ccc2c1`, for which the Ki under setting [2] was above 20 nM.

`Cc1cc(-c2ccccc2C(C)C)c(O)c(=O)n1CC(=O)NCc1cc2cc[nH]c2cn1` returned a Ki under setting [2] below 20 nM.

In turn, `Cc1cc(C(=O)N2CCCCC2)c(NCCCC2CC2)c(=O)n1CC(=O)NCc1cc2cc[nH]c2cn1` yielded a Ki under setting [1] below 20 nM.

Regarding `Cc1cc(C(=O)N(CC(C)C)CC(C)C)c(O)c(=O)n1CC(=O)NCc1cc2cc[nH]c2cn1`, the Ki under setting [1] is below 20 nM.

`Cc1cc(-c2ccccc2C(F)(F)F)cc(=O)n1CC(=O)NCc1cc2cc[nH]c2cn1` returned a Ki under setting [2] above 20 nM.

In turn, `Cc1cc(C(=O)N(CC(C)C)CC(C)C)c(O)c(=O)n1CC(=O)NCc1ccc2[nH]ccc2n1` registered a Ki under setting [1] below 20 nM.

Under setting [1], `Cc1cc(C(=O)N2CCCCC2)c(NCC2CC2)c(=O)n1CC(=O)NCc1ccc2[nH]cnc2c1` gave a Ki above 20 nM.

As to `Cc1cc(C(=O)N2[C@H](C)CCC[C@@H]2C)c(O)c(=O)n1CC(=O)NCc1ccc2[nH]cnc2c1` (relative stereo), under setting [1], the Ki is below 20 nM.

`Cc1cc(-c2ccccc2C(C)C)c(O)c(=O)n1CC(=O)NCc1cc2c(Cl)c[nH]c2cn1`: under setting [2], the Ki was below 20 nM.

In turn, `Cc1cc(C(=O)N2CCCCC2)c(NCCC2CC2)c(=O)n1CC(=O)NCc1ccc2[nH]cnc2c1` showed a Ki under setting [1] below 20 nM.

Regarding `CC(=O)c1c(-c2ccccc2C(C)C)cc(C)n(CC(=O)NCc2cc3cc[nH]c3cn2)c1=O`, the Ki under setting [2] is below 20 nM.

The compound `CCNc1c(C(=O)N(C(C)C)C(C)C)cc(C)n(CC(=O)NCc2ccc3[nH]ccc3c2)c1=O` displayed a Ki under setting [1] below 20 nM.
